Earlier results on one compound are cited in PMC11739085, “A novel non-invasive murine model for rapidly testing drug activity via inhalation administration against Mycobacterium tuberculosis” (Frontiers in Pharmacology, 2025).

Each structure is given as a SMILES string.

On the set-up of the data set: method as in Grewal et al., 2018; Grosset et al., 1992; Lyons et al., 2013. To be noted: mice, oral administration; ref Grewal et al., 2018; Grosset et al., 1992; Lyons et al., 2013; cited from earlier work.

Regarding `CO[C@H]1/C=C/O[C@@]2(C)Oc3c(C)c(O)c4c(O)c(c(/C=N/N5CCN(C)CC5)c(O)c4c3C2=O)NC(=O)/C(C)=C\C=C\[C@H](C)[C@H](O)[C@@H](C)[C@@H](O)[C@@H](C)[C@H](OC(C)=O)[C@@H]1C` [RIF, rifampicin], the “time of highest plasma concentration post-administration” value is recorded as 1.33 h.
